Target: human MCHR1 (Homo sapiens, UniProt Q99705)
Assay: Cyclic AMP assay (MCHR-1 functional antagonism)
Details: read-out: MCHR-1 functional Ki; CHO cells stably expressing human MCHR1; cAMP accumulation with 25 uM forskolin and 0.2 nM MCH, 90 min; Ki from IC50 by Cheng-Prusoff

Amino acid sequences for entries named in this document (tags omitted).
UniProt Q99705, whole entry: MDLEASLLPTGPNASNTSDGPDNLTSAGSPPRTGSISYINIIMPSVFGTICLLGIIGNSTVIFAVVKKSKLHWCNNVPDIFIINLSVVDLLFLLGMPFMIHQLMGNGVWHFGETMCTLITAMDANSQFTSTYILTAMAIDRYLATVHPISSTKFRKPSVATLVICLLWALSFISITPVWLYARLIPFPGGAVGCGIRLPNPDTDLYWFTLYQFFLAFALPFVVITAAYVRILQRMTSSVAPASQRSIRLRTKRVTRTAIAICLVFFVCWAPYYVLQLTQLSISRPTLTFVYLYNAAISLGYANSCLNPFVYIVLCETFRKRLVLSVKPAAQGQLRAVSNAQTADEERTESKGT

| Compound | Ki |
| --- | --- |
| CC(=O)N(C)[C@@H]1CCN(c2ccc(-n3ccc(OCc4ccccc4)cc3=O)cn2)C1 | 15.9 nM |
| CC(=O)N1CCC[C@H]2CN(c3ccc(-n4ccc(OCc5ccccc5)cc4=O)cn3)C[C@H]21 | 83.8 nM |
| CC(C)(C)OC(=O)N1CCC[C@@H]2CN(c3ccc(-n4ccc(OCc5ccc(Cl)cc5)cc4=O)cn3)C[C@@H]21 | 5.31 nM |
| CC(C)(C)OC(=O)N1CCC[C@@H]2CN(c3ccc(-n4ccc(OCc5ccc(F)cc5)cc4=O)cn3)C[C@@H]21 | 7.75 nM |
| CC(C)(C)OC(=O)N1CCC[C@@H]2CN(c3ccc(-n4ccc(OCc5ccccc5)cc4=O)cn3)C[C@@H]21 | 22.7 nM |
| CC(C)(C)OC(=O)N1CCC[C@H]2CN(c3ccc(-n4ccc(OCc5ccc(Cl)cc5)cc4=O)cn3)C[C@H]21 | 8.23 nM |
| CC(C)(C)OC(=O)N1CCC[C@H]2CN(c3ccc(-n4ccc(OCc5ccc(F)cc5)cc4=O)cn3)C[C@H]21 | 15.7 nM |
| CC(C)(C)OC(=O)N1CCC[C@H]2CN(c3ccc(-n4ccc(OCc5ccccc5)cc4=O)cn3)C[C@H]21 | 16.8 nM |
| CC(C)(C)OC(=O)N[C@@H]1CCN(c2ccc(-n3ccc(OCc4ccccc4)cc3=O)nn2)C1 | 3800 nM |
| CC1(N)CN(c2ccc(-n3ccc(OCc4ccc(F)cc4)cc3=O)cn2)C1 | 94.7 nM |
| CCN(C(=O)OC(C)(C)C)[C@H]1CCN(c2ccc(-n3ccc(OCc4ccccc4)cc3=O)cn2)C1 | 31.4 nM |
| CCN[C@H]1CCN(c2ccc(-n3ccc(OCc4ccccc4)cc3=O)cn2)C1 | 9.92 nM |
| CN1CCC[C@@H]2CN(c3ccc(-n4ccc(OCc5ccccc5)cc4=O)cn3)C[C@@H]21 | 14.3 nM |
| CN1CCC[C@H]2CN(c3ccc(-n4ccc(OCc5ccccc5)cc4=O)cn3)C[C@H]21 | 19.4 nM |
| CN1C[C@@H]2CN(c3ccc(-n4ccc(OCc5ccccc5)cc4=O)cn3)C[C@@H]2C1 | 3.47 nM |
| CNC1(C)CN(c2ccc(-n3ccc(OCc4ccc(F)cc4)cc3=O)cn2)C1 | 105 nM |
| CNC1(C)CN(c2ccc(-n3ccc(OCc4ccccc4)cc3=O)cn2)C1 | 100 nM |
| CN[C@@H]1CCN(c2ccc(-n3ccc(OCc4ccc(F)cc4)cc3=O)cn2)C1 | 12.7 nM |
| CN[C@H]1CCN(c2ccc(-n3ccc(CCc4ccccc4)cc3=O)cn2)C1 | 6.9 nM |
| CN[C@H]1CCN(c2ccc(-n3ccc(OCc4ccccc4)cc3=O)nn2)C1 | 417 nM |
| COC(=O)N1CCC[C@@H]2CN(c3ccc(-n4ccc(OCc5ccc(F)cc5)cc4=O)cn3)C[C@@H]21 | 42.6 nM |
| COC(=O)N1CCC[C@@H]2CN(c3ccc(-n4ccc(OCc5ccccc5)cc4=O)cn3)C[C@@H]21 | 45.9 nM |
| COC(=O)N1CCC[C@H]2CN(c3ccc(-n4ccc(OCc5ccc(F)cc5)cc4=O)cn3)C[C@H]21 | 42 nM |
| COC(=O)N1CCC[C@H]2CN(c3ccc(-n4ccc(OCc5ccccc5)cc4=O)cn3)C[C@H]21 | 42.9 nM |
| N[C@@H]1CCN(c2ccc(-n3ccc(OCc4ccc(F)cc4)cc3=O)cn2)C1 | 5.68 nM |
| N[C@@H]1CCN(c2ccc(-n3ccc(OCc4ccccc4)cc3=O)nn2)C1 | 659 nM |

| Compound | Ki |
| --- | --- |
| O=c1cc(OCc2ccc(Cl)cc2)ccn1-c1ccc(N2C[C@@H]3CCCN[C@@H]3C2)nc1 | 3.23 nM |
| O=c1cc(OCc2ccc(Cl)cc2)ccn1-c1ccc(N2C[C@H]3CCCN[C@H]3C2)nc1 | 2.9 nM |
| O=c1cc(OCc2ccc(F)cc2)ccn1-c1ccc(N2CCN3CCC[C@H]3C2)nc1 | 116 nM |
| O=c1cc(OCc2ccc(F)cc2)ccn1-c1ccc(N2C[C@@H](O)[C@@H](O)C2)nc1 | 711 nM |
| O=c1cc(OCc2ccc(F)cc2)ccn1-c1ccc(N2C[C@@H]3CCCN[C@@H]3C2)nc1 | 4.86 nM |
| O=c1cc(OCc2ccc(F)cc2)ccn1-c1ccc(N2C[C@H]3CCCN[C@H]3C2)nc1 | 4.48 nM |
| O=c1cc(OCc2ccc(F)cc2)ccn1-c1ccc(N2C[C@H]3CNC[C@H]3C2)nc1 | 4.46 nM |
| O=c1cc(OCc2ccccc2)ccn1-c1ccc(N2CC3CCCC2C3)nc1 (stereo not drawn) | 101 nM |
| O=c1cc(OCc2ccccc2)ccn1-c1ccc(N2CCN3CCC[C@H]3C2)nc1 | 141 nM |
| O=c1cc(OCc2ccccc2)ccn1-c1ccc(N2CC[C@@H]3CNC[C@@H]32)nc1 | 14.9 nM |
| O=c1cc(OCc2ccccc2)ccn1-c1ccc(N2C[C@@H]3CCCN[C@@H]3C2)nc1 | 9.31 nM |
| O=c1cc(OCc2ccccc2)ccn1-c1ccc(N2C[C@H]3CCCN[C@H]3C2)nc1 | 9.15 nM |
| CC(=O)N1CC[C@@H]2CN(c3ccc(-n4ccc(OCc5ccccc5)cc4=O)cn3)C[C@@H]21 (relative stereo) | 110 nM |
| CC(=O)N1C[C@@H]2CCN(c3ccc(-n4ccc(OCc5ccccc5)cc4=O)cn3)[C@@H]2C1 (relative stereo) | 201 nM |
| CC(C)(C)OC(=O)N1CC[C@H]2CN(c3ccc(-n4ccc(OCc5ccccc5)cc4=O)cn3)C[C@H]21 (relative stereo) | 271 nM |
| CC(C)(C)OC(=O)N[C@@H]1CN(c2ccc(-n3ccc(OCc4ccccc4)cc3=O)cn2)C[C@H]1C(F)(F)F (relative stereo) | 258 nM |
| CN(C)[C@H]1CN(c2ccc(-n3ccc(OCc4ccc(Cl)cc4)cc3=O)cn2)C[C@@H]1O (relative stereo) | 36.6 nM |
| CN(C)[C@H]1CN(c2ccc(-n3ccc(OCc4ccccc4)cc3=O)cn2)C[C@@H]1O (relative stereo) | 85.5 nM |
| CN[C@@H]1CN(c2ccc(-n3ccc(OCc4ccc(Cl)cc4)cc3=O)cn2)C[C@H]1O (relative stereo) | 49.5 nM |
| CN[C@@H]1CN(c2ccc(-n3ccc(OCc4ccc(F)cc4)cc3=O)cn2)C[C@H]1O (relative stereo) | 133 nM |
| CN[C@@H]1CN(c2ccc(-n3ccc(OCc4ccccc4)cc3=O)cn2)C[C@H]1O (relative stereo) | 188 nM |
| COC(=O)N1C[C@@H]2CCN(c3ccc(-n4ccc(OCc5ccccc5)cc4=O)cn3)[C@@H]2C1 (relative stereo) | 72 nM |
| C[C@@H]1CN(c2ccc(-n3ccc(OCc4ccccc4)cc3=O)cn2)[C@@H](C)CN1 (relative stereo) | 2480 nM |
| NC[C@@]12C[C@@H]1CN(c1ccc(-n3ccc(OCc4ccccc4)cc3=O)cn1)C2 (relative stereo) | 8.03 nM |
| N[C@@H]1CN(c2ccc(-n3ccc(OCc4ccccc4)cc3=O)cn2)C[C@H]1C(F)(F)F (relative stereo) | 234 nM |
| N[C@@]12C[C@@H]1CN(c1ccc(-n3ccc(OCc4ccccc4)cc3=O)cn1)C2 (relative stereo) | 16.6 nM |

| Compound | Ki |
| --- | --- |
| N[C@]12CCC[C@H]1CN(c1ccc(-n3ccc(OCc4ccccc4)cc3=O)cn1)C2 (relative stereo) | 20.8 nM |
| O=c1cc(OCc2ccc(Cl)cc2)ccn1-c1ccc(N2C[C@H](O)[C@@H](N3CCCC3)C2)nc1 (relative stereo) | 34.8 nM |
| O=c1cc(OCc2ccc(Cl)cc2)ccn1-c1ccc(N2C[C@H](O)[C@@H](N3CCCCC3)C2)nc1 (relative stereo) | 25.8 nM |
| O=c1cc(OCc2ccccc2)ccn1-c1ccc(N2CC[C@@H]3CNC[C@@H]32)nc1 (relative stereo) | 5.92 nM |
| O=c1cc(OCc2ccccc2)ccn1-c1ccc(N2C[C@H](O)[C@@H](N3CCCC3)C2)nc1 (relative stereo) | 86.7 nM |
| O=c1cc(OCc2ccccc2)ccn1-c1ccc(N2C[C@H](O)[C@@H](N3CCCCC3)C2)nc1 (relative stereo) | 40.2 nM |
| O=c1cc(OCc2ccccc2)ccn1-c1ccc(N2C[C@H]3CCC[C@@H](O)[C@H]3C2)nc1 (relative stereo) | 34.7 nM |
| O=c1cc(OCc2ccccc2)ccn1-c1ccc(N2C[C@H]3CC[C@@H]2C3)nc1 (relative stereo) | 76.1 nM |
| C[C@H]1CN(c2ccc(-n3ccc(OCc4ccccc4)cc3=O)cn2)C[C@]1(C)N (relative stereo) [74] | 7.37 nM |
| N[C@]12CCCC[C@H]1CN(c1ccc(-n3ccc(OCc4ccccc4)cc3=O)cn1)C2 (relative stereo) [75] | 24 nM |
| C[C@H]1CN(c2ccc(-n3ccc(OCc4ccccc4)cc3=O)cn2)C[C@]1(C)N (relative stereo) [228] | 6.18 nM |
| N[C@]12CCCC[C@H]1CN(c1ccc(-n3ccc(OCc4ccccc4)cc3=O)cn1)C2 (relative stereo) [229] | 2480 nM |
| CN(C)C1CCCN(c2ccc(-n3ccc(OCc4ccccc4)cc3=O)cn2)C1 (single isomer, unassigned) [38a] | 49.9 nM |
| CN(C)C1CCCN(c2ccc(-n3ccc(OCc4ccccc4)cc3=O)cn2)C1 (single isomer, unassigned) [38b] | 7.16 nM |
| CNC1CCCN(c2ccc(-n3ccc(OCc4ccccc4)cc3=O)cn2)C1 (single isomer, unassigned) [41a] | 19.9 nM |
| CNC1CCCN(c2ccc(-n3ccc(OCc4ccccc4)cc3=O)cn2)C1 (single isomer, unassigned) [41b] | 19.2 nM |
| CC(=O)N(C)C1CCCN(c2ccc(-n3ccc(OCc4ccccc4)cc3=O)cn2)C1 (single isomer, unassigned) [42a] | 24.4 nM |
| CC(=O)N(C)C1CCCN(c2ccc(-n3ccc(OCc4ccccc4)cc3=O)cn2)C1 (single isomer, unassigned) [42b] | 127 nM |
| O=c1cc(OCc2ccccc2)ccn1-c1ccc(N2CCC(N3CCC3)C2)nc1 (single isomer, unassigned) [62a] | 16.8 nM |
| O=c1cc(OCc2ccccc2)ccn1-c1ccc(N2CCC(N3CCC3)C2)nc1 (single isomer, unassigned) [62b] | 11.4 nM |
| CC(=O)N(C)C1CCN(c2ccc(-n3ccc(OCc4ccc(F)cc4)cc3=O)cn2)C1 (single isomer, unassigned) [82a] | 28.5 nM |
| CC(=O)N(C)C1CCN(c2ccc(-n3ccc(OCc4ccc(F)cc4)cc3=O)cn2)C1 (single isomer, unassigned) [82b] | 36.7 nM |
| O=c1cc(OCc2ccc(F)cc2)ccn1-c1ccc(N2CCC(N3CCC3)C2)nc1 (single isomer, unassigned) [89a] | 3.45 nM |
| O=c1cc(OCc2ccc(F)cc2)ccn1-c1ccc(N2CCC(N3CCC3)C2)nc1 (single isomer, unassigned) [89b] | 5.06 nM |
| O=c1cc(OCc2ccc(Cl)cc2)ccn1-c1ccc(N2CCC(N3CCC3)C2)nc1 (single isomer, unassigned) [100a] | 2.67 nM |
| O=c1cc(OCc2ccc(Cl)cc2)ccn1-c1ccc(N2CCC(N3CCC3)C2)nc1 (single isomer, unassigned) [100b] | 9.82 nM |
